Experimental data taken from paper PMC4457528, “Identification of Novel Small Molecule Inhibitors of Oncogenic RET Kinase” (PLoS ONE, 2015).
Read-outs that look alike come from different tables or passages of the source.

Amino acid sequences for entries named in this document (tags omitted). Residues count along the entry.
UniProt P07949, 29-1114 V804M: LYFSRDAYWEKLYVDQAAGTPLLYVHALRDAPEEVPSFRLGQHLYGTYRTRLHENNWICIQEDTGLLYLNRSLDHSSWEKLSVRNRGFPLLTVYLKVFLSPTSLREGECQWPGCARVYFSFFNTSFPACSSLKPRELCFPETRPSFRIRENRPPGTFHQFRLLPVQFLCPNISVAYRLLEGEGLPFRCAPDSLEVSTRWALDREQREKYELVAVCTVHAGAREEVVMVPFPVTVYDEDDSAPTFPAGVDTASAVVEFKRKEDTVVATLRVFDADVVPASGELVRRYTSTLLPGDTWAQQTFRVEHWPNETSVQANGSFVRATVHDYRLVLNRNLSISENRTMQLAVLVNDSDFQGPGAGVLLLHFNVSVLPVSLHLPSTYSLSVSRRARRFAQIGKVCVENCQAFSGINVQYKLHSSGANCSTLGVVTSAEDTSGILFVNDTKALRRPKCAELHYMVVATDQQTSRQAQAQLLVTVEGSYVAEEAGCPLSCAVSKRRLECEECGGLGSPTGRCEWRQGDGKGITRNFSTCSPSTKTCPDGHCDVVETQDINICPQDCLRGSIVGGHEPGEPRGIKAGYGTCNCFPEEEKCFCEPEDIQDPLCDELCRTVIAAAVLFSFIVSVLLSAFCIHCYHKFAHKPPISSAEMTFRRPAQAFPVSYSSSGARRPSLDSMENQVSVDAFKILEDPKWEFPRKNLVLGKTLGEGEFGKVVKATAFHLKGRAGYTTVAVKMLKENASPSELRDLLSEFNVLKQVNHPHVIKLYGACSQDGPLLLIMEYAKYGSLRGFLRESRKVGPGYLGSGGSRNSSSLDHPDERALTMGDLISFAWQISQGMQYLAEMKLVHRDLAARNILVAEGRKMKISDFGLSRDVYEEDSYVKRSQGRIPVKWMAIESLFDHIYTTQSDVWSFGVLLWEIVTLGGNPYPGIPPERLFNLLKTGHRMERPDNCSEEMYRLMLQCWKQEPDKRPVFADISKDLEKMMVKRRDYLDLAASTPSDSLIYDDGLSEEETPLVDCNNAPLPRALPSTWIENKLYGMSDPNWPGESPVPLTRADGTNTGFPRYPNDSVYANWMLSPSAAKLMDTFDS
UniProt P07949, 29-1114 V804L: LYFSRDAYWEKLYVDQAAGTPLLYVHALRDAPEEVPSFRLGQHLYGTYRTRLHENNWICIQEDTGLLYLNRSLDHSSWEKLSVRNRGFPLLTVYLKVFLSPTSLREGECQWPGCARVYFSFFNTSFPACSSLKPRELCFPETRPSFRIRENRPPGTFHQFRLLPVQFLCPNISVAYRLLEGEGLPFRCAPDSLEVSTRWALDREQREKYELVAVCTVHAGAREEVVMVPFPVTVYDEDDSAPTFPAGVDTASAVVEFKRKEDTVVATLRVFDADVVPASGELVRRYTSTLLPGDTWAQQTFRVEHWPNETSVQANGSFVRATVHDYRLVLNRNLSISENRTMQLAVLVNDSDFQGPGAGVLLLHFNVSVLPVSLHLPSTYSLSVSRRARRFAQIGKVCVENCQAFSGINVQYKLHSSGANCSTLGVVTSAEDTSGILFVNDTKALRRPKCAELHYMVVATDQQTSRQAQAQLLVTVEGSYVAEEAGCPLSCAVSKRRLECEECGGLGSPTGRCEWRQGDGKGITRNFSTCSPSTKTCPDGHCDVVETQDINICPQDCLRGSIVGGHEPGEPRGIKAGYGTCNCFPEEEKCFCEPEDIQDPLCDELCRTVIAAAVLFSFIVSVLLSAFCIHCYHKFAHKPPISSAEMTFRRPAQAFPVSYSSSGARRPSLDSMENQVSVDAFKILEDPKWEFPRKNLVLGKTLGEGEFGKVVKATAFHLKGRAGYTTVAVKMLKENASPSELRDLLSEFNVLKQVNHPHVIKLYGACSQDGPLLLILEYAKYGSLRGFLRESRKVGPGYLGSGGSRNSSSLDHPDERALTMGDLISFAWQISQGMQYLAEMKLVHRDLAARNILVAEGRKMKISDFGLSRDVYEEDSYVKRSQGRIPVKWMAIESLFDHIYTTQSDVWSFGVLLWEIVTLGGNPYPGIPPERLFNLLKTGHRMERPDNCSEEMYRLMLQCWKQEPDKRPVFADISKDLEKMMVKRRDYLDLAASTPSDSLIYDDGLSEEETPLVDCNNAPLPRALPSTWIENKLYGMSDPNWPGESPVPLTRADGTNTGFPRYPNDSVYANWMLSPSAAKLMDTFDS
UniProt P07949, 29-1072 isoform P07949-2 A883F: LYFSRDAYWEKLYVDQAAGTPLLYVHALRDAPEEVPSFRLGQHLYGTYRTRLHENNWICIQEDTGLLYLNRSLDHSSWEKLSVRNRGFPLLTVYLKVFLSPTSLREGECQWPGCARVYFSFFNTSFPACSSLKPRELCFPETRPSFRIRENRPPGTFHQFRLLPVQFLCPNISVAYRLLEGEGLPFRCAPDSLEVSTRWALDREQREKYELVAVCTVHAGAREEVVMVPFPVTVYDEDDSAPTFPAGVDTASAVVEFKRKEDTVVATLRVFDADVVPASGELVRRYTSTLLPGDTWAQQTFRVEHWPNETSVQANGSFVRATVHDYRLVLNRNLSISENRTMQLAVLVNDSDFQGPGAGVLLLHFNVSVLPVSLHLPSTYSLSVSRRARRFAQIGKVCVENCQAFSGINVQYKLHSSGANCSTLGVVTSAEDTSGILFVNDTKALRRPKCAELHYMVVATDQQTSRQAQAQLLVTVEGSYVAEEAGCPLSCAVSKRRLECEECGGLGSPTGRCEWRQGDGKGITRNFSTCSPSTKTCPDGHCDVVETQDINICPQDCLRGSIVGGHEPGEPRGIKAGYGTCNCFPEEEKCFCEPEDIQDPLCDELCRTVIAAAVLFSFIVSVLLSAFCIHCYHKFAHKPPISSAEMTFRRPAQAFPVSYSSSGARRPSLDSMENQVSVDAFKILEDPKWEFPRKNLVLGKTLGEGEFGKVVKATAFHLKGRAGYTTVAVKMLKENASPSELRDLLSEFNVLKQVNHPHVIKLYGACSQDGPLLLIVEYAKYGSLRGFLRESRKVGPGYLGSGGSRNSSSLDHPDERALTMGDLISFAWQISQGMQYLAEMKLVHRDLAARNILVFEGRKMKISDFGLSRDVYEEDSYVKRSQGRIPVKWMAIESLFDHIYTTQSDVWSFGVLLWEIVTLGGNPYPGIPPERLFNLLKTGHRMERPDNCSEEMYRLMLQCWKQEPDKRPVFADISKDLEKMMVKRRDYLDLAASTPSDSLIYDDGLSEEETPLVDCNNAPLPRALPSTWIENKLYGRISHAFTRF

Legend:
RET/V804M = target: T1, RET/V804M (Homo sapiens, UniProt P07949, V804M); assay: Invitrogen SelectScreen in vitro kinase assay, RET/V804M; type: biochemical; details: read-out: in vitro IC50 dose: RET (V804M)
T1 construct: purchased Invitrogen (SelectScreen service)
Description: (§1) Fig 2 ALW-II-41-27, HG-6-63-01 and XMD15-44 chemical structure. A) Chemical structure of the studied compounds: red colour indicates the “tail”, black colour indicates “linker”, and pink colour indicates the “head” part in the binding. B) Modelling of ALW-II-41-27 (left), XMD15-44 (middle) and HG-6-63-01(right) binding to the DFG-out conformation of RET.
(§2) Though more rarely than C634 and M918 mutations, other mutations targeting RET residues in the tyrosine kinase domain can cause familial or sporadic MTC [1, 2]. […] Of note, RET A883 residue is located in the VI Hanks domain adjacent to RET activation loop and it corresponds to G372 residue in ABL kinase whose mutation has been isolated in imatinib-resistant patients.

RET/V804L = target: T2, RET/V804L (Homo sapiens, UniProt P07949, V804L); assay: Invitrogen SelectScreen in vitro kinase assay, RET/V804L; type: biochemical; details: read-out: in vitro IC50 dose: RET (V804L)
T2 construct: purchased Invitrogen (SelectScreen service)
Description: as §1, §2

KinomeScan kinase panel [1] = target: T3, KinomeScan kinase panel (Homo sapiens, UniProt P07949, V804L); assay: KinomeScan kinase panel, single concentration 10 µM; type: binding; details: read-out: score (%)
T3 construct: purchased DiscoveRx (KinomeScan)

KinomeScan kinase panel [2] = target: T4, KinomeScan kinase panel (Homo sapiens, UniProt P07949, V804M); assay: as above; type: binding; details: read-out: score (%)
T4 construct: purchased DiscoveRx (KinomeScan)

[3] = target: RET/E768D, RET/L790F, RET/V804L, RET/V804M, RET/A883F, RET/S891A (Homo sapiens, UniProt P07949, A883F); details: A883F, RET activation loop
[4] = test system: RET/E768D, RET/L790F, RET/V804L, RET/V804M, RET/A883F, RET/S891A; details: RAT1 cells, 2 hr, compared with RET/C634R and RET/M918T
RAT RET/C634R cells = type: cell-based; details: bound stated for RET/C634R or RET/M918T, read-out: IC50 of proliferation of RAT1 expressing RET/C634R
Procedure: (§3) To compare cell growth, we performed unpaired Student’s t test using the Instat software program (Graphpad Software Inc). P values were two-sided, and differences were considered statistically significant at P <.02. IC50 doses were calculated through a curve fitting analysis from last day values using the PRISM software program (Graphpad Software Inc).

RAT RET/M918T cells = assay: Growth curves, RAT1 cells transformed by RET/M918T; type: cell-based; details: bound stated for RET/C634R or RET/M918T, read-out: IC50 of proliferation of RAT1 expressing RET/M918T
Procedure: as §3

RET V804M/L = details: cited from earlier work

| remaining binding at 10 µM (KinomeScan kinase panel [1]; RET(V804L), 10 µM) | remaining binding at 10 µM (KinomeScan kinase panel [2]; RET(V804M), 10 µM) | Structure (SMILES) | IC50 (RET/V804M) | IC50 (RET/V804L) | remaining binding at 10 µM (KinomeScan kinase panel [1]) | remaining binding at 10 µM (KinomeScan kinase panel [2]) | RET inhibitory effect with A883F mutation [3] | sensitivity of RET/L790F, RET/V804M and RET/S891A phosphorylation [4] | IC50 (RAT RET/C634R cells) | IC50 (RAT RET/M918T cells) | remaining binding at 10 µM (KinomeScan kinase panel [1]; kinase RET(V804L), 10 µM) | remaining binding at 10 µM (KinomeScan kinase panel [2]; kinase RET(V804M), 10 µM) | effect of RET V804M on drug sensitivity (RET V804M/L; V804M) | fold increase of in vitro IC50 dose for RET by V804M/L (RET V804M/L) |
| --- | --- | --- | --- | --- | --- | --- | --- | --- | --- | --- | --- | --- | --- | --- |
|  |  | CCN1CCN(Cc2ccc(NC(=O)c3ccc(C)c(NC(=O)c4cncc(-c5cccs5)c4)c3)cc2C(F)(F)F)CC1 [ALW-II-41-27] | 15.8 nM | 94.2 nM | 0% | 0% | impaired | comparable to that of RET/C634R and RET/M918T proteins | ≤ 56 nM | ≤ 56 nM |  |  |  |  |
| 0% | 0% | CCN1CCN(Cc2ccc(NC(=O)c3ccc(C)c(/C=C/c4cnc5[nH]ccc5c4Cl)c3)cc2C(F)(F)F)CC1 [HG-6-63-01, (E)-3-(2-(4-chloro-1H-pyrrolo[2,3-b]pyridin-5-yl)vinyl)-N-(4-((4-ethylpiperazin-1-yl)methyl)-3-(trifluoromethyl)phenyl)-4-methylbenzamide] | 33.3 nM | 329 nM |  |  | impaired | comparable to that of RET/C634R and RET/M918T proteins | ≤ 56 nM | ≤ 56 nM |  |  |  |  |
|  |  | CCN1CCN(Cc2ccc(NC(=O)c3ccc(C)c(C#Cc4cccnc4)c3)cc2C(F)(F)F)CC1 [XMD15-44] | 11.9 nM | 99.3 nM |  |  | impaired | comparable to that of RET/C634R and RET/M918T proteins | ≤ 56 nM | ≤ 56 nM | 0% | 0% |  |  |
|  |  | COc1cc2nccc(Oc3ccc(NC(=O)C4(C(=O)Nc5ccc(F)cc5)CC4)cc3)c2cc1OC [cabozantinib] |  |  |  |  |  |  |  |  |  |  | resistance |  |
|  |  | COc1cc2c(Nc3ccc(Br)cc3F)ncnc2cc1OCC1CCN(C)CC1 [vandetanib] |  |  |  |  |  |  |  |  |  |  |  | 50 fold |
